Earlier results in US5583105A, “Oral pharmaceutical preparation” (Biogal Gyogyszerguar Rt, priority 1994, dated 1996).

System: white mouse

For “d-α-tocopheryl polyethylene glycol 1000 succinate [Vitamin E TPGS]”, the LD50 is listed as > 5 g/kg.
